Experimental data taken from patent US11896417B2, “Time-varying kinetic modeling of high temporal-resolution dynamic pet data for multiparametric imaging” (The Regents of the University of California, priority 2018, dated 2024).

Experiments:
[1] = in vivo
[2] = human, in vivo

## ^18F-fluorodeoxyglucose [FDG]
[1]
  myocardial FDG extraction fraction E: < 0.3
[2]
  E (FDG extraction fraction): 0.38±0.08
  F (blood flow): 1.62 ± 0.43 mL/g/min
  Tc (transit time): 13.00 ± 3.06 s
  fv (fractional blood volume): 0.07±0.05
  k2 (tissue-to-blood delivery rate): 0.81 ± 0.28 min⁻¹
